Test results from ChEMBL document CHEMBL1944599, “From libraries to candidate: the discovery of new ultra long-acting dibasic β₂-adrenoceptor agonists” (Bioorg Med Chem Lett, 2012).

Amino acid sequences for entries named in this document (tags omitted).
UniProt P07550, whole entry: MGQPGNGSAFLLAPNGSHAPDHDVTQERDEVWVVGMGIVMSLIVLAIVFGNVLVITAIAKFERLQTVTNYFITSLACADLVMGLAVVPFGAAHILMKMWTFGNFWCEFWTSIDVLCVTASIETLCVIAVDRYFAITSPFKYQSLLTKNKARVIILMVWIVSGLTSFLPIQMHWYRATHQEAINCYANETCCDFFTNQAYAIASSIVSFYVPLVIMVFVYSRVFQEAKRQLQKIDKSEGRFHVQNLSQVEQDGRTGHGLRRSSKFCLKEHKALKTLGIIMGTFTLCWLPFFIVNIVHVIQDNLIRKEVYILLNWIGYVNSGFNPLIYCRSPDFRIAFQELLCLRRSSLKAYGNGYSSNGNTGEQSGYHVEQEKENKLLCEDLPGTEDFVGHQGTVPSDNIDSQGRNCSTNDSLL
UniProt P08588, whole entry: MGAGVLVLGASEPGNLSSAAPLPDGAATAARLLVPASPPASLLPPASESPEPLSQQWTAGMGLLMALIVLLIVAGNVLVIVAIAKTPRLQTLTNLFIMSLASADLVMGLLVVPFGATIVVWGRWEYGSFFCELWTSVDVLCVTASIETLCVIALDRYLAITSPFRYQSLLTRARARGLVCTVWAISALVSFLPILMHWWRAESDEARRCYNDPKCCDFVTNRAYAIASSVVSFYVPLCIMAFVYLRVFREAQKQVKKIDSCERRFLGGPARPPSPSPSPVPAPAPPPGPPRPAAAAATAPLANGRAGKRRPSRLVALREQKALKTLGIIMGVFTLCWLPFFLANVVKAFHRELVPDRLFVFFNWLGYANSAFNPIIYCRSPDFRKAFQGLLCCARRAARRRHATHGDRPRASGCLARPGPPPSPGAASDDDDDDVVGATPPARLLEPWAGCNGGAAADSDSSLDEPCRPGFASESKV

Assays:
[1] = molecular target: Beta-2 adrenergic receptor (Homo sapiens, UniProt P07550); experiment: Displacement of radiolabeled iodocyanopindolol from recombinant beta2 adrenoceptor
[2] = molecular target: Beta-1 adrenergic receptor (Homo sapiens, UniProt P08588); experiment: Binding affinity to beta1 adrenoceptor expressed in CHO cells by cAMP accumulation assay; assay type: functional, cell-based
Cavia porcellus = species on record: Cavia porcellus; experiment: animal or person

COc1ccccc1CNCc1cccc(CCNC[C@H](O)c2ccc(O)c3[nH]c(=O)sc23)c1
IC50 [1]: 6.31 nM
EC50 [2]: 63.1 nM

O=c1[nH]c2c(O)ccc([C@@H](O)CNCCc3cccc(CNCc4ccccc4Cl)c3)c2s1
IC50 [1]: 2 nM

COc1ccc(CC(C)NCC(O)c2ccc(O)c(NC=O)c2)cc1 (centres undefined) [FORMOTEROL]
ED80 (Cavia porcellus): 1 µg/kg
